Assay results: publication PMC2699104 (The Journal of General Physiology, 2009)

Columns and labels:
Experiment in all cases: saturation radioligand binding, membranes
M1R-CFP (M1R-Cerulean) = biological target: T1, M1R-CFP (M1R-Cerulean) (Mus musculus, UniProt P12657)
T1 sequence (P12657 1-460): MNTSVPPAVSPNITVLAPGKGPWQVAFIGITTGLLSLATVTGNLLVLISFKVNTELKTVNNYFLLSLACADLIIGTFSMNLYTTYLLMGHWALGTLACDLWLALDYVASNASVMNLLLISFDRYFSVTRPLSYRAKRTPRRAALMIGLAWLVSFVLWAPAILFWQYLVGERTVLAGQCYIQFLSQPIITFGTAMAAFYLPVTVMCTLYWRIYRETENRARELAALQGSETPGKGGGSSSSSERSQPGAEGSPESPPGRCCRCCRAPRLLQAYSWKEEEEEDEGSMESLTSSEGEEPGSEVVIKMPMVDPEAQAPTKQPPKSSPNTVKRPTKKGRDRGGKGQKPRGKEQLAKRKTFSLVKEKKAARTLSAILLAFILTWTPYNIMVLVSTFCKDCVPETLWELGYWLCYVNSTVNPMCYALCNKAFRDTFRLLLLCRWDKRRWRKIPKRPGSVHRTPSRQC

[1] = biological target: T2, M1R-YFP-CFP (M1R-EYFP-Cerulean) (Mus musculus, UniProt P12657, DEL224-357)
T2 sequence (P12657 1-223): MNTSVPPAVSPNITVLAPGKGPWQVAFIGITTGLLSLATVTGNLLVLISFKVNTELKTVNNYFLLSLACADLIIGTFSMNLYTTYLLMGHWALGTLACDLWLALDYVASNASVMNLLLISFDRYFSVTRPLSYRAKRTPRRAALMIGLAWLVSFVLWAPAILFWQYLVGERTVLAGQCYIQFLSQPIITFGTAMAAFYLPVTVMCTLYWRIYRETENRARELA
T2 sequence (P12657 358-460): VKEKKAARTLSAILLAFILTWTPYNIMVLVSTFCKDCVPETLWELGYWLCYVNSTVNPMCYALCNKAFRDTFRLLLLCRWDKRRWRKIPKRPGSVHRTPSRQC

[2] = biological target: T3, wild-type M1R (M1 muscarinic receptor) (Mus musculus, UniProt P12657)
T3 sequence (P12657 1-460): T1 sequence (P12657 1-460)

Kd (M1R-CFP (M1R-Cerulean)): 0.94 ± 0.4 nM | Kd [1]: 0.76 ± 0.51 nM | Kd [2]: 0.74 ± 0.58 nM
SMILES: C[N+]1(C)[C@@H]2C[C@@H](OC(=O)[C@H](CO)c3ccccc3)C[C@H]1[C@@H]1O[C@@H]12 [3H-NMS]
